Experimental findings from patent US20050089495A1, “Transdermal transport of compounds” (priority 2001, published 2005) are described below.

The nature of this data set: Acute transdermal penetration of 3H-Estradiol and 3H-Estradiol Phosphate in the hairless rat model.

On to `C[C@]12CC[C@@H]3c4ccc(O)cc4CC[C@H]3[C@@H]1CC[C@@H]2OP(=O)(O)O` [EP, Estradiol Phosphate], for which the “amount remaining in the skin” value (24 hours after application, individual skin layers analysed) is on record as “minimal”. In addition, the “transdermal absorption in comparison to E” value (tritiated compounds, 5 μg in carrier cream, FIG. 2) was “more readily absorbed”.
